Earlier results, collected in paper PMC2898448 (The Journal of Biological Chemistry, 2010).

Test system: DPP4
Settings: cited from earlier work

Row | Compound | inhibition of GLP1 processing by DPP4 (in words) | substrate specificity of DPP4 inhibition (in words)
1 | N#C[C@@H]1CCCN1C(=O)CNC12CC3CC(CC(O)(C3)C1)C2 [Galvus] | inhibit the processing of GLP1 by DPP4 | not GLP1-specific
2 | N[C@@H](CC(=O)N1CCn2c(nnc2C(F)(F)F)C1)Cc1cc(F)c(F)cc1F [Januvia] | inhibit the processing of GLP1 by DPP4 | not GLP1-specific
